Biological target: T1, ProRS (amino acids 998–1513 of human EPRS) (Homo sapiens, UniProt P07814)
T1 sequence (P07814 998-1512 limits assumed): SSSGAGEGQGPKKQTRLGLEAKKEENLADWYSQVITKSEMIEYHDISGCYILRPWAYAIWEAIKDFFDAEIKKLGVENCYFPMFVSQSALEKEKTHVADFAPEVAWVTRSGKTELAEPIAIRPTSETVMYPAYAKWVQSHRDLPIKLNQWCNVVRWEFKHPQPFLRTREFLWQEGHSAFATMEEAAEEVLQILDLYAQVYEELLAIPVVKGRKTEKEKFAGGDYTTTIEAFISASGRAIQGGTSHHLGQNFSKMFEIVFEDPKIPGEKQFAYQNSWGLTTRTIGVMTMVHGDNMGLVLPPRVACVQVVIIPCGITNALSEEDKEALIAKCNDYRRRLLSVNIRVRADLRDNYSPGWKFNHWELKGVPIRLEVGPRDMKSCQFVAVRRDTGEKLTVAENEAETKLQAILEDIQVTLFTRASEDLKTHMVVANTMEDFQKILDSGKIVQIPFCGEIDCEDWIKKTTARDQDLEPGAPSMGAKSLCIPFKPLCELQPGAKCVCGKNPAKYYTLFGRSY
Assay: [3H]-HFol binding to immobilized ProRS
Settings: Fig. 3a
Summary of the method: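 His6-tagged human EPRS prolyl-tRNA synthetase domain, expressed in E. coli, immobilized on Ni-NTA beads. Beads washed twice in ice-cold buffer; bound counts by scintillation, with beads given tag-free E. coli extract as background.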

`O=C(C[C@H]1NCCC[C@@H]1O)Cn1cnc2ccccc2c1=O` [FF, febrifugine] was tested, and the “competition of [3H]-HFol binding to ProRS” value was “competed”.

— paper PMC3281520 (Nature chemical biology, 2012)
